Laboratory results taken from patent US6664231B1, “Anti-fungal peptides” (priority 1993, dated 2003).

Legend:
[1] = system: C. albicans (CA-1, Strain SLU-1); experiment: Radial diffusion assay; format: cell-based, Candida albicans; settings: pmoles of peptide added to well to achieve a 30 mm^2 zone, PROBIT analysis, crude or purified (P′) peptide
Method: In the radial diffusion assay procedures, the CA-1 cultures and peptide solutions were prepared as in the broth assay procedure described above. Ten mL of molten underlayer agarose comprising 3% Sabouraud Dextrose broth, 1% agarose (Pharmacia, Piscataway, N.J.), 0.02% Tween 20, and 10 mM sodium phosphate at pH 7.4, was added to polystyrene tubes and maintained in a 56° C. water bath until the addition of yeast. Tubes were cooled to approximately 45° C., yeast were added to give a final concentration of 1×10^6 CFU/mL, and the tubes were mixed again by inverting. The contents were poured into level square petri dishes and distributed evenly. […] A series of wells were punched into the hardened agarose using a sterile 3 mm punch attached to a vacuum apparatus.
Peptides to be assayed were 2-fold serially diluted in Dulbecco's PBS (D-PBS) starting from a concentration of approximately 1 mg/mL. Five μL of each dilution were added to each well and the plates were incubated at 37° C. for 3 hours. An overlayer of 10 mL of molten agarose comprising 6% Sabouraud Dextrose broth, 1% agarose, and 10 mM sodium phosphate, pH 7.4, (at approximately 45° C.) was then added and plates were incubated overnight at 37° C. Following this overnight incubation, a dilute Coomassie solution was poured into the plates and allowed to stain for 24 hours.
Clear zones of growth inhibition around each well were measured with calipers. The actual area of growth inhibition (mm^2) was calculated by subtracting the area of the well. Table 1 below sets out the results of the radial diffusion assays for tested peptides in terms of the number of picomoles (pmol) of peptide required to establish a 30 mm^2 area of growth inhibition calculated by PROBIT analysis (e.g., calculated from regression of the linear portion of log-concentration dose-response curve, log pmol/well vs. net area of inhibition).

[2] = system: mouse RAW 264.7 cells incubated with E. coli O113 LPS; settings: RAW 264.7 cells with E. coli O113 LPS; concentration reversing LPS growth inhibition by 50%
Method: (§1) An in vitro LPS neutralization screening assay for evaluation of Domain III derived peptides was developed (as described in co-owned and co-pending U.S. patent application Ser. No. 08/306,473) which provides both a measure of efficacy of each peptide (EC50) and of the toxicity/growth inhibition of each peptide (IC50).
(§2) The cells were counted and their concentration adjusted to 2×10^5 cells/mL and 100 μL aliquots were added to each well of a 96-well microtitre plate. […] This incubation was performed in the absence or presence of peptides in varying concentrations between 25 ng/mL and 50 μg/mL. […] Cell proliferation was quantitatively measured by the addition of 1 μCi/well [^3H]-thymidine 5 hours after the time of initiation of the assay. After the 15-hour incubation, labeled cells were harvested onto glass fiber filters with a cell harvester (Inotech Biosystems, INB-384, Sample Processing and Filter Counting System, Lansing, Mich.).

[3] = system: mouse RAW 264.7 cells; settings: RAW 264.7 cell growth inhibited by 50%
Method: as §1, §2

[4] = system: Candida tropicalis; experiment: Radial diffusion assay, Candida species (Table 2); format: cell-based
Method: (§3) The anti-fungal activity of Domain III derived peptides was also evaluated in vitro against a variety of fungal species, including Candida glabrata, Candida krusei, Candida lusitaniae, Candida parapsilosis, and Candida tropicalis. For these experiments, one colony of each of the above-listed Candida strains was picked from a Sabouraud's dextrose agar (SDA) plate and inoculated into 5 mL of Sabouraud's dextrose broth (SDB, 2% dextrose and 1% neopeptone) or, for C. krusei, Yeast Malt broth (YM, Becton Dickenson, Cockeysville, Md., cat no. BL 11405) in 12 mL polyproplyene snap-cap tubes. The tube cultures were incubated overnight with shaking at 37° C.
(§4) Cultures were harvested when the OD570 of a 1:10 dilution was greater than or equal to the following values: 0.083 for Candida glabrata, 0.154 for Candida krusei, 0.117 for Candida lusitaniae, 0.076 for Candida parapsilosis, and 0.192 for Candida tropicalis. Cells were centrifuged for 7 minutes in an Eppendorf microfuge at 3,000 rpm (about 1,500 g). The cell pellet was resuspended in 1 mL PBS and approximately 1×10^7 cells in about 0.5 mL were added to 10 mL of cooled underlay agar (3% SBD, 1% agarose, 0.02% Tween 20, 10 mM sodium phosphate buffer, pH 7.4 at about 45° C.). The suspension was poured into square petri plates, allowed to solidify, and wells cut as described above.
(§5) Peptides were two-fold serially diluted with D-PBS from about 20 μL of a starting concentration of approximately 1 mg/mL. Five μL of peptide dilution were added per well and allowed to diffuse for at least about 30 minutes into the agar at […] (to allow complete diffusion). Then 10 mL of molten overlayer agarose (6% SDB, 1% agarose, 10 mM sodium phosphate buffer, pH 7.4 at about 45° C.) were added and the plates were incubated inverted at […] overnight. Plates were stained with a dilute Coomassie solution, inhibition zones were measured with calipers and net areas were calculated, then converted to pmole values by PROBIT analysis.

[5] = system: Candida glabrata; experiment: Radial diffusion assay, Candida species (Table 2); format: cell-based
Method: as §3, §4, §5

[6] = system: Candida lusitaniae; experiment: Radial diffusion assay, Candida species (Table 2); format: cell-based
Method: as §3, §4, §5

[7] = system: Candida krusei; experiment: Radial diffusion assay, Candida species (Table 2); format: cell-based
Method: as §3, §4, §5

[8] = system: Candida parapsilosis; experiment: Radial diffusion assay, Candida species (Table 2); format: cell-based
Method: as §3, §4, §5

[9] = in vitro; format: in vitro ADME, rat or human serum; settings: half-life of peptide in serum as detected by HPLC analysis
Method: (§6) For these serum stability experiments, peptides were prepared by solid phase peptide sythesis and purified to 94% or greater purity as described in Example 1. Blood was collected from metaphane anesthesized rats by aortic bleed into Vacutainer™ tubes and allowed to clot at room temperature for approximately 30 minutes, then centrifuged at 3000 rpm (about 1000×g) for 10 minutes at room temperature and the serum aspirated. In addition, frozen human serum (North American Biologics, Inc., Miami, Fla., cat. no. 2140, lot no. 94115) was thawed at room temperature and filtered through a 0.45 μm membrane before use.
(§7) A 1 mg/mL solution of an exemplary XMP peptide to be tested was added to an equal volume of either rat or human serum described above and maintained at 37° C. At 0, 1, 2, and 4 hours, 100 μL were removed and processed by solid phase extraction for HPLC analysis as follows. Serum samples were prepared for HPLC using C-18 Sep-Pak cartridges (1 mL cartridge with 100 mg of sorbent, Waters Corp., Milford, Mass.). One hundred μL of serum sample were added to an equal volume of 1% TFA and mixed for 30 seconds on a Vortex mixer. The sample was then applied to a C-18 Sep-Pak cartridge that had been conditioned by washing with 1 mL of methanol followed by 1 mL Milli-Q water. Weakly reed components were eluted by washing with 1 mL of 0. 1% TFA. The bound peptide was eluted with two volumes of 250 μL 80% acetonitrile/0.065% TFA.
The material eluted from the Sep-Pak cartridge was analyzed on a Michrom Ultaafast Microprotein Analyzer equipped with a 150 mm×1 mm, 5μ particle, 300 Å pore C-8 Zorbax column. The column oven was set to 40° C., the flow rate was 100 μL/minute, and injection volumes were typically 5-10 μL. HPLC was performed using 5% acetonitrile/0.1% TFA in water as mobile phase A, and 80% acetonitrile/0.065% TFA as mobile phase B. The eluate was monitored spectiophotometrically at 214 nm. Peptide standards were dissolved in mobile phase A at 0. 1 mg/mL. The gradient was 25-35% B/10 minutes followed by a 5 minute wash step of 100% B and reequilibration at 25% B for 10 minutes.

[10] = system: Candida albicans; experiment: Radial diffusion assay, Candida species (Table 2); format: cell-based; settings: higher effective concentration of agarose than Table 1
[11] = system: Candida albicans SLU-1 strain; experiment: Serum stability, anti-fungal activity after serum incubation by radial diffusion bioassay; format: in vitro ADME, rat or human serum
Method: as §6, §7
The peptides identified and purified after serum incubation as described above were subjected to N-terminal peptide sequencing performed on an Applied Biosystems Model 477A/120A sequencer and to electrospray ionization mass spectrometry (ESI/MS) performed using a VG Biotech Bio-Q Mass Spectrometer. In addition, the peptides identified and purified after serum incubation as described above were also tested for their anti-fungal activity in a radial diffusion bioassay with Candida albicans SLU-1 strain as described in Example 2.

SMILES: CC[C@H](C)[C@H](NC(=O)[C@H](CC(C)C)NC(=O)[C@H](Cc1c[nH]c2ccccc12)NC(=O)[C@H](CCCCN)NC(=O)[C@@H](NC(=O)[C@@H](N)CCCCN)C(C)C)C(=O)N[C@@H](CCC(N)=O)C(=O)N[C@@H](CC(C)C)C(=O)N[C@@H](Cc1ccccc1)C(=O)N[C@@H](Cc1c[nH]cn1)C(=O)N[C@@H](CCCCN)C(=O)N[C@@H](CCCCN)C(N)=O [XMP.286]
- C. albicans pmol/30 mm^2 zone [1]: 1,216 pmol/30 mm^2 zone
- C. albicans pmol/30 mm^2 zone ([1]; listed as XMP.286P′): 253 pmol/30 mm^2 zone
- In Vitro LPS Neutralization EC50 [2]: 4.68 ± 0.26 µg/mL
- IC50 (toxicity/growth inhibition of peptide) [3]: NA (NA for IC50 means no evidence of decreased RAW cell growth at up to 50 μg/ml)
- Anti-fungal activity: pmol/30 mm^2 zone, Candida tropicalis [4]: 606 pmol/30 mm^2 zone
- Anti-fungal activity: pmol/30 mm^2 zone, Candida glabrata [5]: 1,843 pmol/30 mm^2 zone
- Anti-fungal activity: pmol/30 mm^2 zone, Candida lusitaniae [6]: 1,235 pmol/30 mm^2 zone
- Anti-fungal activity: pmol/30 mm^2 zone, Candida krusei [7]: 1,558 pmol/30 mm^2 zone
- Anti-fungal activity: pmol/30 mm^2 zone, Candida parapsilosis [8]: 1,134 pmol/30 mm^2 zone

SMILES: CC[C@@H](C)[C@@H](NC(=O)[C@@H](CCC(N)=O)NC(=O)[C@@H](CC(C)C)NC(=O)[C@@H](CCCCN)NC(=O)[C@H](N)CCCCN)C(=O)N[C@H](CC(C)C)C(=O)N[C@H](Cc1c[nH]c2ccccc12)C(=O)N[C@H](CCCCN)C(=O)N[C@H](CCCCN)C(N)=O [XMP.332]
- C. albicans pmol/30 mm^2 zone [1]: 356 pmol/30 mm^2 zone
- C. albicans pmol/30 mm^2 zone ([1]; listed as XMP.332P′): 338 pmol/30 mm^2 zone
- HPLC Peptide in Serum t ½ (hr.) [9]: indefinite
- In Vitro LPS Neutralization EC50 [2]: 5.65 ± 0.16 µg/mL
- IC50 (toxicity/growth inhibition of peptide) [3]: NA (NA for IC50 means no evidence of decreased RAW cell growth at up to 50 μg/ml)
- Anti-fungal activity: pmol/30 mm^2 zone, Candida albicans [10]: 3,931 pmol/30 mm^2 zone
- Activity in Serum t ½ (hr.) [11]: indefinite
- decrease in activity during serum incubation [11]: did not show any decrease
- Anti-fungal activity: pmol/30 mm^2 zone, Candida tropicalis [4]: 866 pmol/30 mm^2 zone
- Anti-fungal activity: pmol/30 mm^2 zone, Candida glabrata [5]: 2,190 pmol/30 mm^2 zone
- Anti-fungal activity: pmol/30 mm^2 zone, Candida lusitaniae [6]: <219 pmol/30 mm^2 zone
- Anti-fungal activity: pmol/30 mm^2 zone, Candida krusei [7]: 2,802 pmol/30 mm^2 zone
- Anti-fungal activity: pmol/30 mm^2 zone, Candida parapsilosis [8]: 170 pmol/30 mm^2 zone

SMILES: CC[C@H](C)[C@H](NC(=O)[C@H](CC(C)C)NC(=O)[C@H](Cc1c[nH]c2ccccc12)NC(=O)[C@H](CCCCN)NC(=O)[C@H](N)CCCCN)C(=O)N[C@@H](CCC(N)=O)C(=O)N[C@@H](CC(C)C)C(=O)N[C@@H](CCCCN)C(=O)N[C@@H](CCCCN)C(N)=O [XMP.333]
- C. albicans pmol/30 mm^2 zone [1]: 673 pmol/30 mm^2 zone
- IC50 (toxicity/growth inhibition of peptide) [3]: NA (NA for IC50 means no evidence of decreased RAW cell growth at up to 50 μg/ml)
- Anti-fungal activity: pmol/30 mm^2 zone, Candida albicans [10]: 5,191 pmol/30 mm^2 zone
- Anti-fungal activity: pmol/30 mm^2 zone, Candida tropicalis [4]: 2,894 pmol/30 mm^2 zone
- Anti-fungal activity: pmol/30 mm^2 zone, Candida glabrata [5]: 4,040 pmol/30 mm^2 zone
- Anti-fungal activity: pmol/30 mm^2 zone, Candida lusitaniae [6]: 174 pmol/30 mm^2 zone
- Anti-fungal activity: pmol/30 mm^2 zone, Candida krusei [7]: 4,101 pmol/30 mm^2 zone
- Anti-fungal activity: pmol/30 mm^2 zone, Candida parapsilosis [8]: 209 pmol/30 mm^2 zone
